# Assay results: patent US20240208963A1, “CRYSTALLINE MELANOCORTIN SUBTYPE-2 RECEPTOR (MC2R) ANTAGONIST” (Crinetics Pharmaceuticals, Inc., priority 2022, published 2024)
# Experiment: Solubility in simulated fluids and water
# Settings: 37° C.
substance,measurement,setting,value
N-[(3S)-1-azabicyclo[2.2.2]octan-3-yl]-6-(2-ethoxyphenyl)-3-[(2R)-2-ethyl-4-[1-(trifluoromethyl)-cyclobutanecarbonyl]piperazin-1-yl]pyridine-2-carboxamide mandelate [mandelate Pattern E],Solubility,"FaSSGF, 30 min",>1690 µg/mL
same,Solubility,"FaSSGF, 24 h",>1740 µg/mL
same,Solubility,"FaSSIF, 30 min",1190 µg/mL
same,Solubility,"FaSSIF, 24 h",1380 µg/mL
same,Solubility,"FeSSIF, 30 min",>2200 µg/mL
same,Solubility,"FeSSIF, 24 h",>2130 µg/mL
same,Solubility,"water, 30 min",2520 µg/mL
same,Solubility,"water, 24 h",>2170 µg/mL
